We go through one compound from patent US9907800B2, “Kinase inhibitors and method of treating cancer” (University Health Network, priority 2010, dated 2018).

Protein sequences, listed by entry. Tags and fused reporters are not part of them. Residues count along the entry.
UniProt Q16620, 32-822: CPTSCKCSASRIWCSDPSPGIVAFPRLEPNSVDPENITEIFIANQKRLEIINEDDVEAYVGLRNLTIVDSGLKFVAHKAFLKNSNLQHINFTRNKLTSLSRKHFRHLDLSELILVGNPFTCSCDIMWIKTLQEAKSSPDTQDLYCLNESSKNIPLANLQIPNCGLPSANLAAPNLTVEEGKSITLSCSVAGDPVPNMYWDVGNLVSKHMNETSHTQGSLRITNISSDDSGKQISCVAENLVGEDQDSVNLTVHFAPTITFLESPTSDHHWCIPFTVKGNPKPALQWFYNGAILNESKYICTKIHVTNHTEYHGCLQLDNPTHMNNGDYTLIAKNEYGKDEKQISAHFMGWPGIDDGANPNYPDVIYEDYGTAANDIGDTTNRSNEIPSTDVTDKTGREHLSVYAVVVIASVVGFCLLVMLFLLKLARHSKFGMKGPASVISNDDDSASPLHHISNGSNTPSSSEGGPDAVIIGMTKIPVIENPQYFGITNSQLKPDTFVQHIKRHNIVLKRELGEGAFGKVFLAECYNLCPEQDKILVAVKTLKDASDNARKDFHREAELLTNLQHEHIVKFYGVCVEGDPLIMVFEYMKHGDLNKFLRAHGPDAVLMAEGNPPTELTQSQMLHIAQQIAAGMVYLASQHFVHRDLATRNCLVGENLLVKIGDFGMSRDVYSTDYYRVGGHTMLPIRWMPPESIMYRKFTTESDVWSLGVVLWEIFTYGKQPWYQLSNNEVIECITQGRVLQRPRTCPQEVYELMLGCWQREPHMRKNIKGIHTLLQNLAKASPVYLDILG

The target in the test is TrkB (Homo sapiens (Human), UniProt Q16620). In words: biochemical. The following applies: read-out: % Inhibition @ 0.1 μM.

Structures can show the parent of a compound that is named as a salt.

As a reminder, the inhibition is the change of the read-out against control, counted positive when it falls.

`COc1ccc2c(c1)[C@]1(C[C@H]1c1ccc3c(-c4ccc(N5CCN(C)CC5)cc4)n[nH]c3c1)C(=O)N2` [Example A39, (1R,2S)-5′-methoxy-2-(3-(4-(4-methylpiperazin-1-yl)phenyl)-1H-indazol-6-yl)spiro[cyclopropane-1,3′-indolin]-2′-one hydrochloride]: the inhibition at 0.1 µM is 70%.
